Experimental data: US8552202B2, “Furo[3, 2-B] pyrrol-3-ones as cathespin S inhibitors” (Amura Therapeutics Limited, priority 2008, dated 2013)

The chains behind the UniProt entries cited, without tags or fusion partners. Residues count along the entry.
UniProt P25774, 115-331: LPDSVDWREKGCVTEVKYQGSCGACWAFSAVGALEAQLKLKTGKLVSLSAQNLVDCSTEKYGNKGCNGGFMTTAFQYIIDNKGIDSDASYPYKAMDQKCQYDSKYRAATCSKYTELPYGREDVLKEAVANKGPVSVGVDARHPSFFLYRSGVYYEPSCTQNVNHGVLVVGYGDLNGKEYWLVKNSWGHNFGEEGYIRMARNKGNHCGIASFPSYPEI

Target: Human recombinant cathepsin S (Homo sapiens (Human), UniProt P25774)
Test: In vitro cathepsin Ki inhibition measurements, cathepsin S
Type: biochemical
Settings: cathepsin S over cathepsin K
Description: Stock solutions of substrate or inhibitor were made up to 10 mM in 100% dimethylsulfoxide (DMSO) (Rathburns, Glasgow, U.K.) and diluted as appropriately required. In all cases the DMSO concentration in the assays was maintained at less than 1% (vol./vol.). The equilibrium inhibition constants (Ki^ss) for each compound were measured under steady-state conditions monitoring enzyme activity as a function of inhibitor concentration. The values were calculated on the assumption of pure competitive behaviour (Cornish-Bowden, A. Fundamentals of enzyme kinetics Portland Press; 1995, 93-128.). […]
The apparent inhibition constant (Ki) for each compound was determined on the basis that inhibition was reversible and occurred by a pure-competitive mechanism. The Ki values were calculated, from the dependence of enzyme activity as a function of inhibitor concentration, by direct regression analysis (Prism v 3.02) using Equation 2 (Cornish-Bowden, A., 1995.).
In situations where the apparent dissociation constant (Ki^app) approached the enzyme concentrations, the Ki^app values were calculated using a quadratic solution in the form described by Equation 3 (Morrison, J. F. Trends Biochem. Sci., 7, 102-105, 1982; Morrison, J. F. Biochim. Biophys. Acta. 185, 269-286, 1969: Stone, S. R. and Hofsteenge, J. Biochemistry, 25, 4622-4628, 1986). […]

**Q.** How did the “selectivity verses cathepsin K (in words)” value turn out when `O=C(N[C@H](C(=O)N1CC[C@H]2OCC(=O)[C@H]21)C1CCCCC1)c1ccccc1` [Compound 1] was run?
**A.** Its value is “little selectivity”.
